## AlphaSeq binding of Ab-14 light chain variants to a spike HR2 peptide

All variants were tested on one target, the spike HR2 peptide PDVDLGDISGINAS (SARS-CoV-2).

The variants keep the heavy chain, the linker and the frameworks of Ab-14 (scFv order VH, the linker GGGGSGGGGSGGGGS, VL).
VH: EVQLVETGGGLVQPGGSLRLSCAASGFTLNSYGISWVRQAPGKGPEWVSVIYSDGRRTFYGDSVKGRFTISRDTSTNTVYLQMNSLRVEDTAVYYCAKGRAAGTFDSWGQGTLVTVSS
VL: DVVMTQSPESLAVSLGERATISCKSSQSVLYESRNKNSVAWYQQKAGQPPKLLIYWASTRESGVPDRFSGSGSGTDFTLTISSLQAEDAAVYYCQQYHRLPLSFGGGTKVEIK

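The parent was found by panning a naive human phage display library on the peptide. Library AAYL50 holds single substitutions and randomly drawn double and triple substitutions in the CDRs. The assay is AlphaSeq: two haploid yeast populations carry antibody and antigen on their surface. Binding brings cells together so that they mate, and sequencing counts the barcode pairs among the diploids. The ratio of observed to expected reads was calibrated, replicate by replicate, on BCL2-family standards whose Kd was known from biolayer interferometry. Mating was done three times.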

Positions count from residue 1 of the parent VL; E32Q puts Q in place of E.
This list gathers variants with a substitution at S103 (VL, numbered from residue 1).
Kd is apparent (estimated from mating counts) and averaged on the log scale over replicates with a signal. Smaller is tighter.
"no signal" marks a missing value. The strain was present, yet no cells mated with the target were sequenced in any replicate, which points to weak or no binding.
Background: pairings of library AAYL50 with three empty control strains gave a value in 18% of cases (median 15 µM, 5th percentile 970 nM). Values in that range, when seen in few replicates, are hard to tell from nonspecific mating. The control count says in how many pairings with the empty strains this scFv gave a signal.

* E32Q/S38F/S103L -> 7.8 µM (1 of 3 replicates; controls 3 of 9)
* W56F/S103C -> 77 nM (3 of 3 replicates; controls 2 of 9)
* N35F/Q95N/S103C -> 36 nM (3 of 3 replicates; controls 0 of 9)
* S58I/P101D/S103A -> 3.5 µM (3 of 3 replicates; controls 0 of 9)
* E32G/S38I/S103I -> 55 µM (3 of 3 replicates; controls 6 of 9)
* S38E/A57M/S103M -> no signal (0 of 3 replicates; controls 0 of 9)
* S28D/A40H/S103K -> no signal (0 of 3 replicates; controls 0 of 9)
* L30N/S103W -> 29 µM (1 of 3 replicates; controls 2 of 9)
* S26Y/A40W/S103N -> 42 µM (1 of 3 replicates; controls 0 of 9)
* S25G/S28M/S103G -> 1.4 µM (2 of 3 replicates; controls 1 of 9)
* Y31P/Q96V/S103C -> 120 µM (2 of 3 replicates; controls 4 of 9)
* K24M/T59Q/S103K -> 2.3 µM (1 of 3 replicates; controls 1 of 9)
* S38W/S103W -> 2.6 µM (3 of 3 replicates; controls 1 of 9)
* N35Q/L100D/S103D -> 420 nM (3 of 3 replicates; controls 9 of 9)
* L30G/Y97I/S103R -> 6.0 nM (3 of 3 replicates; controls 4 of 9)
* V29E/L30A/S103K -> no signal (0 of 3 replicates; controls 0 of 9)
* R99H/L100S/S103P -> 39 nM (3 of 3 replicates; controls 1 of 9)
* N35L/V39P/S103A -> no signal (0 of 3 replicates; controls 0 of 9)
* S25V/A40V/S103Q -> 4.8 µM (2 of 3 replicates; controls 1 of 9)
* S28E/S58K/S103D -> no signal (0 of 3 replicates; controls 1 of 9)
* S33Y/R34A/S103P -> no signal (0 of 3 replicates; controls 1 of 9)
* Q27F/A57Q/S103N -> no signal (0 of 3 replicates; controls 0 of 9)
* H98W/L100K/S103R -> 67 nM (3 of 3 replicates; controls 1 of 9)
* V29I/S103N -> 140 nM (3 of 3 replicates; controls 1 of 9)
* R60M/Q95P/S103L -> 910 nM (1 of 3 replicates; controls 0 of 9)
* S38E/S103V -> 1.6 µM (3 of 3 replicates; controls 6 of 9)
* K24E/R99C/S103W -> 520 nM (2 of 3 replicates; controls 0 of 9)
* S38C/L102M/S103E -> 4.7 µM (1 of 3 replicates; controls 0 of 9)
* S33C/R60P/S103M -> no signal (0 of 3 replicates; controls 2 of 9)
* S28M/S38Y/S103C -> no signal (0 of 3 replicates; controls 0 of 9)
* S58A/R99W/S103F -> 51 µM (1 of 3 replicates; controls 2 of 9)
* R60T/S62Y/S103I -> no signal (0 of 3 replicates; controls 0 of 9)
* R34E/S103H -> 150 nM (3 of 3 replicates; controls 0 of 9)
* R60C/E61M/S103E -> 390 nM (3 of 3 replicates; controls 0 of 9)
* A57S/S103F -> 19 nM (3 of 3 replicates; controls 0 of 9)
* S26Y/E61F/S103W -> 2.0 µM (3 of 3 replicates; controls 1 of 9)
* N35L/R60V/S103H -> no signal (0 of 3 replicates; controls 0 of 9)
* L100H/L102N/S103C -> 3.5 µM (3 of 3 replicates; controls 0 of 9)
* V39M/S62E/S103P -> 6.0 µM (3 of 3 replicates; controls 5 of 9)
* A40Y/Y97I/S103T -> 320 µM (1 of 3 replicates; controls 3 of 9)
* S103A -> 5.0 nM (3 of 3 replicates; controls 0 of 9)
* T59H/S103W -> 6.6 µM (3 of 3 replicates; controls 4 of 9)
* S26E/S28M/S103I -> 1.3 µM (1 of 3 replicates; controls 0 of 9)
* L30S/Y97D/S103K -> 4.1 nM (3 of 3 replicates; controls 4 of 9)
* V39C/S103Q -> 3.8 µM (3 of 3 replicates; controls 2 of 9)
* W56I/S103K -> no signal (0 of 3 replicates; controls 0 of 9)
* K24H/N35Y/S103D -> 3.1 µM (1 of 3 replicates; controls 0 of 9)
* S103C -> 60 nM (3 of 3 replicates; controls 0 of 9)

The measurements come from Engelhart et al. 2022 (doi:10.1038/s41597-022-01779-4) through the FLAb antibody collection.